≈ marks a conversion by molar mass, not a printed value.
Key:
SR = assay: Growth inhibition of human SR cells after 48 hrs by SRB assay; format: functional
Method in brief: (§1)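 NCI-60 five-dose screen at 100 µM, 10 µM, 1 µM, 100 nM and 10 nM. Incubation 48 h at 37 °C, 5% CO2, 100% humidity. Growth was expressed relative to the no-drug control and to the time-zero cell number, and GI50 was derived from these values.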

[1] = Chemical stability of the compound in 100 mM pH 7 PBS buffer assessed as compound remaining at 10 mM at room temperature after 4 days; settings: pH 7, 96 h, 10000 µM
[2] = Cytotoxicity against human CLL cells assessed as reduction in cell viability after 24 hrs
CCRF-CEM = assay: Growth inhibition of human CCRF-CEM cells after 48 hrs by SRB assay; format: functional; method in brief: as §1
K562 = assay: Growth inhibition of human K562 cells after 48 hrs by SRB assay; format: functional; method in brief: as §1
[3] = Chemical stability of the compound in 100 mM pH 6 PBS buffer assessed as compound remaining at 10 mM at room temperature after 4 days; settings: pH 6, 96 h, 10000 µM
MOLT-4 = assay: Growth inhibition of human MOLT4 cells after 48 hrs by SRB assay; format: functional; method in brief: as §1
HT-29 = assay: Growth inhibition of human HT-29 cells after 48 hrs by SRB assay; format: functional; method in brief: as §1
RPMI-8226 = assay: Growth inhibition of human RPMI8226 cells after 48 hrs by SRB assay; format: functional; method in brief: as §1
[4] = Solubility of the compound in 50% DMSO/PBS buffer at 10 mM pH 6 after 3 to 10 days by NMR analysis; settings: pH 6, 10000 µM
HOP-92 = assay: Growth inhibition of human HOP92 cells after 48 hrs by SRB assay; format: functional; method in brief: as §1
IGROV-1 = assay: Growth inhibition of human IGROV1 cells after 48 hrs by SRB assay; format: functional; method in brief: as §1
[5] = Chemical stability of the compound in 100 mM pH 7.4 PBS buffer assessed as compound remaining at 10 mM at room temperature after 2 days; settings: pH 7.4, 48 h, 10000 µM
[6] = Chemical stability of the compound in 90% DMSO/PBS buffer assessed as compound remaining at pH 6 in presence of GSH
[7] = Chemical stability of the compound in 100 mM pH 6 PBS buffer assessed as compound remaining at 10 mM at room temperature after 2 days; settings: pH 6, 48 h, 10000 µM
Malme-3M = assay: Growth inhibition of human MALME-3M cells after 48 hrs by SRB assay; format: functional; method in brief: as §1
MDA-MB-468 [8] = assay: Growth inhibition of human MDA-MB-468 cells after 48 hrs by SRB assay; format: functional; method in brief: as §1
SK-OV-3 = assay: Growth inhibition of human SKOV3 cells after 48 hrs by SRB assay; format: functional; method in brief: as §1
[9] = Solubility of the compound in PBS buffer at 10 mM at pH 7.4 by UV-based analysis; format: physicochemical; settings: pH 7.4, 10000 µM
Method in brief: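 Compound (10 mM DMSO stock) was diluted into pH 7.4 buffer (ethanolamine/KH2PO4/potassium acetate/KCl) to a final 5% DMSO. After sonication and 18 h agitation the mixture was filtered and scanned by UV at 230-800 nm. Solubility was calculated from calibration plots made in 20% acetonitrile buffer, in quadruplicate, with solubility standards on each plate.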

[10] = Chemical stability of the compound in 50% DMSO/PBS buffer assessed as compound remaining at pH 6 in presence of GSH after 48 hrs; settings: pH 6, 48 h
SNB-75 = assay: Growth inhibition of human SNB75 cells after 48 hrs by SRB assay; format: functional; method in brief: as §1
MDA-MB-468 [11] = assay: Growth inhibition of human MDA-MB-468 cells after 48 hrs by […]
MCF7 = assay: Growth inhibition of human MCF7 cells after 48 hrs by SRB assay; format: functional; method in brief: as §1
[12] = Drug level in DMSO-d6/PBS buffer treated with 4-(bis(2-chloroethyl)amino)phenylboronic acid assessed as compound formation after 10 days in presence of GSH by IT-TOF mass analysis; settings: 240 h

OB(O)c1ccc(N(CCCl)CCCl)cc1
GI50 (SR): 0.48 µM
Stability [1]: 99%
IC50 [2]: 5 to 6 µM
GI50 (CCRF-CEM): 3.27 µM
GI50 (K562): 15.8 µM
Stability [3]: 99%
GI50 (MOLT-4): 2.9 µM
GI50 (HT-29): 11.9 µM
GI50 (RPMI-8226): 8.59 µM
solubility [4]: Insoluble
GI50 (HOP-92): 10.5 µM
GI50 (IGROV-1): 18.1 µM
Stability [5]: > 99%
Stability [6]: Stable
Stability [7]: > 99%
GI50 (Malme-3M): 19.7 µM
GI50 (MDA-MB-468 [8]): 0.51 µM
GI50 (SK-OV-3): 3.81 µM
solubility [9]: 328 µM (≈ 85.9 µg/mL)
Stability [10]: 96%
GI50 (SNB-75): 3.21 µM
IC50 (MDA-MB-468 [11]): 16.7 µM
GI50 (MCF7): 1.89 µM

ClCCN(CCCl)c1ccccc1
Drug uptake [12]: Active

Reference: ChEMBL document CHEMBL4382201 (J Med Chem, 2018)
